Common to all, as to assay type: functional, cell-based
Assay [1] relates to SK-BR-3. In words: Concentration needed to inhibit 50% growth of human SKBr3 (breast carcinoma) cell lines.
In assay [2] the test system is A-431. In words: Concentration needed to inhibit 50% growth of the human A431 (epidermoid carcinoma) cell lines.
Assay [3] relates to SW-620. In words: Concentration needed to inhibit 50% growth of human SW620 (colon carcinoma) cell lines.

Each structure is given as a SMILES string.

The text below walks through data of ChEMBL document CHEMBL1133627, “4-Anilino-6,7-dialkoxyquinoline-3-carbonitrile inhibitors of epidermal growth factor receptor kinase and their bioisosteric relationship to the 4-anilino-6,7-dialkoxyquinazoline inhibitors” (J Med Chem, 2000).

For orientation: IC50 means the concentration at which inhibition is half-maximal. Read a low IC50 as inhibition by little substance.

With `COc1cc2ncc(C#N)c(Nc3cccc(C(F)(F)F)c3)c2cc1OC`, the IC50 was 13.4 µM in assay [1], 2.53 µM in assay [2] and 35.6 µM in assay [3].

With `COc1cc2ncc(C#N)c(Nc3cccc([N+](=O)[O-])c3)c2cc1OC`, the figures for the 50% inhibitory concentration (IC50) in assay [1], in assay [2] and in assay [3] were 2 µM, 2.14 µM and 17.3 µM, respectively.

Consider `COc1cc2ncc(C#N)c(Nc3cc(Cl)ccc3O)c2cc1OC`, for which the IC50 was determined as 1.19 µM in assay [1], 0.94 µM in assay [2] and 3.43 µM in assay [3].

In the case of `COc1ccc(Nc2c(C#N)cnc3cc(OC)c(OC)cc23)cc1OC`, the results for the IC50 in assay [1], in assay [2] and in assay [3] were 13.2 µM, 5.28 µM and 8.76 µM, respectively.
